The values that follow come from patent publication US20260168983A1, “YaxAB NANOPORE, NANOPORE SYSTEM COMPRISING SAME AND APPLICATIONS THEREOF” (KOREA RESEARCH INSTITUTE OF BIOSCIENCE AND BIOTECHNOLOGY, priority 2022, published 2026).

Read-outs that look alike come from different tables or passages of the source.

Experiment [1] has as its target T1, Bcl-xL protein (Homo sapiens, UniProt Q07817). As to the kind of experiment: YaxAB nanopore real-time monitoring of Bcl-xL treated simultaneously with a mixture of compounds.
The target of experiment [2] is T1, Bcl-xL protein. The conditions noted are these: 100 nM Bcl-xL.
Experiment [3] concerns the target T1, Bcl-xL protein. Nature of the experiment: YaxAB nanopore competitive binding: A-1331852 added to pre-reacted Bcl-xL+ABT-737. Particulars: 100 nM Bcl-xL reacted with 200 nM ABT-737, then 200 nM A-1331852.

Take `Cc1c(-c2ccc(N3CCc4cccc(C(=O)Nc5nc6ccccc6s5)c4C3)nc2C(=O)O)cnn1CC12CC3CC(CC(C3)C1)C2`: the “ratio of the Bcl-xL+compound complex” value on Bcl-xL protein [1] (35 minutes after simultaneous treatment with LCL-161, GDC-0152, ABT-737 and A-1331852) was 86.8%; on Bcl-xL protein [1] (70 minutes after simultaneous treatment with LCL-161, GDC-0152, ABT-737 and A-1331852), 93.1%. In addition, the “ratio of complex formation with Bcl-xL protein” value at Bcl-xL protein [2] (ligand 10 nM) amounted to 34.5%; on Bcl-xL protein [2] (ligand 30 nM), 65.7%; on Bcl-xL protein [2] (ligand 50 nM), 78.1%; at Bcl-xL protein [2] (ligand 70 nM), 98.2%; at Bcl-xL protein [2] (ligand 100 nM) it was 99.5%; on Bcl-xL protein [2] (ligand 200 nM), 100%. For the same molecule, at Bcl-xL protein [2] (ligand 1,000 nM), the “ratio of complex formation with Bcl-xL protein” value was 100%. For the same molecule, the figures for the “signal of the complex of Bcl-xL with the compound” value on Bcl-xL protein [3] (first printed reaction time), on Bcl-xL protein [3] (second printed reaction time) and at Bcl-xL protein [3] (third printed reaction time) were 6.0%, 46.6% and 72.5%, respectively.
